Literature values in patent publication US20240228623A1.

Amino acid sequences for entries named in this document (tags omitted). Residues count along the entry.
UniProt P55899, 24-297 limits assumed: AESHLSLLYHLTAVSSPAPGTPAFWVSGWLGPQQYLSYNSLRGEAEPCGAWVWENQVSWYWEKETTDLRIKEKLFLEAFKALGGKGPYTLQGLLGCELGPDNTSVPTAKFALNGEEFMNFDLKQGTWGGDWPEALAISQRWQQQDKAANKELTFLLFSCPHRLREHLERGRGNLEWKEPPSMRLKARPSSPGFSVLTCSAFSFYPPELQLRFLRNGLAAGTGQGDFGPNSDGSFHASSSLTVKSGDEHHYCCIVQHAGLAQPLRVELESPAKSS
UniProt P61769, 21-119 partner limits assumed: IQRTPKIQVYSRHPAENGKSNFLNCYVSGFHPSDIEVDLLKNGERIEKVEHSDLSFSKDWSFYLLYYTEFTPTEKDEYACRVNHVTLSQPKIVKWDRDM

Biological target: FcRn (Homo sapiens, UniProt P55899)
Settings: FcRn competition assay, small molecules

IC50: > 500 µM
Compound: N#CC(C(=O)NCCc1ccc(C(N)=O)cc1)c1nc2ccccc2nc1N1CCCCCC1 (stereo not shown)
